In US20130344053:

Molecular target: T1, GST-hBVR fusion protein, wild type (human biliverdin reductase fused to glutathione-S-transferase)
T1 chain: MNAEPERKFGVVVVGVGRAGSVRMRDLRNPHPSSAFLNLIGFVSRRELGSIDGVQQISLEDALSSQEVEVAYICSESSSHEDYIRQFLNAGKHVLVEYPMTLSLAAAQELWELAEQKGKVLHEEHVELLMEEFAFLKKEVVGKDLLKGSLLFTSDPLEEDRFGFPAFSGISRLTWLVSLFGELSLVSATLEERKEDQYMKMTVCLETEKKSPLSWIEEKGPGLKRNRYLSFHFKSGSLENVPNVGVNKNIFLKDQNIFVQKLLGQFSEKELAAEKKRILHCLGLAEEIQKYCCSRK

B1: Insulin receptor beta (IRK), 48 kDa cytoplasmic domain of the beta-subunit (protein)
chain: RKRQPDGPLGPLYASSNPEYLSASDVFPCSVYVPDEWEVSREKITLLRELGQGSFGMVYEGNARDIIKGEAETRVAVKTVNESASLRERIEFLNEASVMKGFTCHHVVRLLGVVSKGQPTLVVMELMAHGDLKSYLRSLRPEAENNPGRPPPTLQEMIQMAAEIADGMAYLNAKKFVHRDLAARNCMVAHDFTVKIGDFGMTRDIYETDYYRKGGKGLLPVRWMAPESLKDGVFTTSSDMWSFGVVLWEITSLAEQPYQGLSNEQVLKFVMDGGYLDQPDNCPERVTDLMRMCWQFNPKMRPTFLEIVNLLKDDLHPSFPEVSFFHSEENKAPESEELEMEFEDMENVPLDRSSHCQREEAGGRDGGSSLGFKRSYEEHIPYTHMNGGKKNGRILTLPRSNPS
BVR phosphorylation by IRK (32P, SDS-PAGE, autoradiography, time course): in the presence of IRK, BVR phosphorylation was detected when assessed at 1 h, and gradually increased up to 4 h
